Here are results for two compounds from paper PMC6857076 (Pharmacology Research & Perspectives, 2019).

Sequences of proteins named here, by UniProt entry; tags and fusion partners are left off. Residues count along the entry.
UniProt O60674, 849-1124 limits assumed: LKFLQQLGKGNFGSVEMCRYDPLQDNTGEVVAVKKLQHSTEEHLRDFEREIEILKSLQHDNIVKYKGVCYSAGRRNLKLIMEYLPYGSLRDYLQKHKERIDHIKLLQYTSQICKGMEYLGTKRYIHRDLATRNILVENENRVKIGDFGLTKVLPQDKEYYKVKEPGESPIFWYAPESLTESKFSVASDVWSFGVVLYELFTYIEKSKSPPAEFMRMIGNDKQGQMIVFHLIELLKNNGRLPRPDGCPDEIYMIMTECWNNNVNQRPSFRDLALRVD

The structures appear in SMILES notation. pIC50: −log10 of the molar value. Where two headings read alike, the source gives them in different places.

For data set [1] the following is noted: RA, randomized controlled trials, cited from earlier work.
Data set [2] concerns the target recombinant human kinase domain of JAK2 (Homo sapiens, UniProt O60674). Kind of data set: Enzymatic microfluidic kinase assay, JAK2.
For data set [3], the target named is T1, recombinant human kinase domain of TYK2 (Homo sapiens, UniProt P29597).
T1 sequence (P29597 897-1176 limits assumed): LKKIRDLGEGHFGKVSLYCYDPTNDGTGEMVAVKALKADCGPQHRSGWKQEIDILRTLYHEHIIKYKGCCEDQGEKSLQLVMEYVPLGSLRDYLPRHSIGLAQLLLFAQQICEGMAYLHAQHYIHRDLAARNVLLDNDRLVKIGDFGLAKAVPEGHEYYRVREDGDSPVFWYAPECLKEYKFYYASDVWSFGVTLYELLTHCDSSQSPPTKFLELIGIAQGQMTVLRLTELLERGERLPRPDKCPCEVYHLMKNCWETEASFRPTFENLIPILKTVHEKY
As to the kind of experiment: Enzymatic microfluidic kinase assay, TYK2.

Take `CCS(=O)(=O)N1CC(CC#N)(n2cc(-c3ncnc4[nH]ccc34)cn2)C1` [Baricitinib]: the “serious infections incidence rate (95% CI)” value is listed as 4.8 (2.3, 9.7) patients with events per 100 p in data set [1] (baricitinib 2 mg QD) and 3.7 (2.3, 5.8) patients with events per 100 p in data set [1] (baricitinib 4 mg QD). Besides, in data set [2], the pIC50 was 8.70.
`O=C(Nc1nc2cccc(-c3ccc(CN4CCS(=O)(=O)CC4)cc3)n2n1)C1CC1` [Filgotinib]: the pIC50 in data set [3] was 6.40.
